Data taken from PubChem BioAssay AID435010 (Broad Institute, 2010).
Records with an inconclusive call do not appear.

Sequences of proteins named here, by UniProt entry; tags and fusion partners are left off. A change or cut given only in a name is not applied to a line headed by its entry.
UniProt P9WHJ3: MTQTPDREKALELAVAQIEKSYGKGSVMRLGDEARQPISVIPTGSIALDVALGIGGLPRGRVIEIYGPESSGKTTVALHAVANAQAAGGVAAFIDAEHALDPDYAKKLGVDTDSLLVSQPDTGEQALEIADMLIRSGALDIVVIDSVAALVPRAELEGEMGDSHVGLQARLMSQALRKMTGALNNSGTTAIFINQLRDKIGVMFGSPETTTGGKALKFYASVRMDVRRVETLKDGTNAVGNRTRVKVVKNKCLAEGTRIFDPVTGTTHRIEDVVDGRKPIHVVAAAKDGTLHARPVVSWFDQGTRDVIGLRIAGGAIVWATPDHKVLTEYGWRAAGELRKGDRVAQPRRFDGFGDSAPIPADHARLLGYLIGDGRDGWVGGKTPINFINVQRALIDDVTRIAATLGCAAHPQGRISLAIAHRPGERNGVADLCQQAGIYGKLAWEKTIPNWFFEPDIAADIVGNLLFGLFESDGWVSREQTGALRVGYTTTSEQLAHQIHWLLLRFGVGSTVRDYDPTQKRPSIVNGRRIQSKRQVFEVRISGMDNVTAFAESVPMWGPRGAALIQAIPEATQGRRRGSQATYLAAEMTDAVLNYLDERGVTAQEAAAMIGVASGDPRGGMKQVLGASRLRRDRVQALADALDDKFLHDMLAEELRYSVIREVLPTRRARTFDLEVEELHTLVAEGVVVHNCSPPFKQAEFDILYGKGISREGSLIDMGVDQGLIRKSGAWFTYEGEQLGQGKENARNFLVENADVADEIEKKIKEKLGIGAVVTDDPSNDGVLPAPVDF

Target: Protein RecA (Mycobacterium tuberculosis (strain ATCC 25618 / H37Rv)) (UniProt P9WHJ3)
Test: RecA intein splicing inhibitors, Mycobacterium tuberculosis, cell free fluorescence, confirmatory dose response (AID 435010)

Structure (SMILES): Clc1ccc(COC(Cn2ccnc2)c2ccc(Cl)cc2Cl)cc1 (configuration not stated)
- EC50: 10.2 µM

Structure (SMILES): Clc1ccc(COC(Cn2ccnc2)c2ccc(Cl)cc2Cl)c(Cl)c1 (configuration not stated)
- EC50: 9.63 µM
